Data set [1] has as its system HCT116 subcutaneous xenograft. The experiment in a line: Tumor growth inhibition by sole administration, colorectal xenograft model. The data set is classed as in vivo, Balb/c nude mice. Particulars: 10 mg/kg intravenous twice per week for six weeks; controls PBS and hIgG. On the procedure:
For use in assaying in-vivo efficacy of the four antibodies of the present disclosure, a subcutaneous xenograft mouse model was established by injecting the metastatic colorectal cancer cell line HCT116 (5×10^6 cells) into 6-week-old Balb/c nude mice. When the tumor size reached about 50-100 mm^3, PBS (negative control), hIgG (negative control), cetuximab, and the four antibodies (B5, E5, 2H5, and 3G7) were each intravenously injected at a dose of 10 mg/kg twice per week for six weeks while monitoring the efficacies. The results are depicted in FIGS. 26a to 26d.

Data set [2] concerns colorectal cancer patients. Particulars: other patients show cetuximab resistance; cited from earlier work.
Data set [3] relates to HT29 cells. The experiment in a line: In vitro CRC proliferation assay, HT29. In kind it is cell-based, human. Particulars: 20 μg/mL, 72 hours, MOCK 2.94±0.04. On the procedure: (§1) The four anti-GRP94 human IgG antibodies B5, E5, 2H5, and 3G7 of the present disclosure were examined in vitro for effect on CRC cell proliferation. For use in the efficacy assay, the four cetuximab-resistant colorectal cancer cell lines HCT116, HT29, LoVo, and HCT-8 were each grown in a culture medium (HCT116, HCT8, HT29, and LoVo: RPMI1640+10% FBS+1% Penicillin-Streptomycin) at 37° C. in T-75 flask in a 5% CO2 incubator until reaching about 80-90% confluency. The culture medium was removed by suction and the cells were washed with 10 mL of phosphate buffered saline (hereinafter PBS). After removal of PBS by suction, the cells were treated 2 mL of TrypLE Express Enzyme at 37° C. for 3 minutes in a 5% CO2 incubator. Thereafter, the cells were added with 8 mL of the culture medium, transferred to 15-mL tube, and centrifuged at 500×g for 5 minutes. […] From a small portion of the cell suspension, the cells were counted using the Countess II Automated Cell Counter. […] From the collected images, cell growth was monitored using the IncuCyte FLR live content imaging system (Essen Bioscience, Ann Arbor, MI, USA). The results are shown in FIGS. 17 to 20. • 1) The four GRP94 human antibodies (B5, E5, 2H5, and 3G7) for HCT8 cells were measured to have the following cell indices at the end point: MOCK: 4.8±0.25, B5: 3.15±0.21, E5: 3.33±0.31, 2H5: 3.98±0.09, 3G7: 3.40±0.16, and CTX: 4.84±0.28.

For data set [4], the system named is HCT8 cells. The experiment in a line: In vitro CRC proliferation assay, HCT8. The data set is classed as cell-based, human. Particulars: 20 μg/mL, 72 hours, MOCK 4.8±0.25. On the procedure:
as §1

Data set [5] is described as follows: In vivo hepatotoxicity and nephrotoxicity in colorectal xenograft model. More on the design: species or system Balb/c nude mice. Particulars: xenograft mice weighed every week, six weeks; 10 mg/kg. On the procedure: To assay the four antibodies of the present disclosure for in vivo hepatotoxicity and nephrotoxicity, the same xenograft model as in Example 11 weighed every week. After six weeks of the experiment, GOT (glutamic oxaloacetic transaminase), GPT (glutamate pyruvate transaminase), and TBIL (total bilirubin) were measured for hepatotoxicity assay while BUN (blood urea nitrogen) and CRE (creatinine) were measured for nephrotoxicity assay. The results are depicted in FIGS. 27a and 27b.

Data set [6] deals with LoVo cells. Kind of data set: In vitro CRC proliferation assay, LoVo. In kind it is cell-based, human. Particulars: 20 μg/mL, 72 hours, MOCK 3.76±0.19. The protocol: as §1

Regarding cetuximab [reference compound], the “inhibitory activity against tumor growth compared to the controls” value in data set [1] is on record as “not significantly different”. Besides, the “share of colorectal cancer patients in whom effective” value in data set [2] is listed as 10-20%. For the same substance, the figures for the “cell index at the end point” value in data set [3], in data set [4] and in data set [6] were 3.27±0.12, 4.84±0.28 and 3.43±0.14, respectively. Further, the “changes in body weight” value in data set [5] was “no significant changes”.

The values are drawn from US12448436B2, “Antibody specifically binding to GRP94 or antigen-binding fragment thereof, and uses thereof” (KOOKMIN UNIVERSITY INDUSTRY ACADEMY COOPERATION FOUNDATION, priority 2020, dated 2025).
